Measured values taken from US20100130549A1, “PSYCHOTROPIC COMPOUNDS, COMPOSITIONS AND METHODS OF USE” (priority 2007, published 2010).

Tested on: BALBc male mice
Experiment: Hot plate test
Assay type: in vivo
Conditions: 10 mg/kg orally (sertraline equimolar); followed for 6 hr
From the text: The hot-plate test is widely used to measure pain sensation. The latency in response to heat of mice and rats feet is based on the method described by Eddy et al., Synthetic analgesics. II. Dithienylbutylamines., J. Pharmacol. Exp. Ther. 107(3), 385-393 (1953). The method is based on placing an animal on heated (52-56 C) surface and measuring the time to response (raising paw, licking of the paw, jumping or running.
. The animals were followed for 6 hr. […]. Significant delay in reaction to heating was found at 102 min. and 240 min. for compound Ia and at 120 min. following drug administration.

CN[C@H]1CC[C@@H](c2ccc(Cl)c(Cl)c2)c2ccccc21 [sertraline, reference compound]
time after drug administration with significant effect on reaction to heating: 120 min
